{"source": "published antibiotic growth screens (doi:10.1038/s41589-023-01349-8)", "note": "The list shows a part of the results.", "data": [{"test_system": "A. baumannii ATCC 17978", "test": "relative growth (fraction of control); higher = less inhibition", "conditions": "50 µM", "values": [{"molecule": "C#C[C@]1(O)CCC2C3CCc4cc(O)ccc4C3CC[C@@]21C", "note": "(stereo not given in full)", "relative growth": 1.04}, {"molecule": "O=C(O)CN(CCN(CC(=O)O)CC(=O)O)CC(=O)O.[Na+].[Na+]", "relative growth": 0.914}, {"molecule": "COC(=O)C1=C[C@@H](O)[C@@H](O)[C@H](O[C@@H]2O[C@H](COC(=O)/C=C/c3ccccc3)[C@@H](O)[C@H](O)[C@H]2O)C1", "relative growth": 1.07}, {"molecule": "CCOC(=O)C(=O)NCc1nnnn1-c1ccccc1", "relative growth": 1.04}, {"molecule": "O=C(C[C@@H]1CC[C@@H](NC(=O)c2cnccn2)[C@H](CO)O1)NCc1ccccc1F", "relative growth": 0.936}, {"molecule": "CN(C)CC(=O)OC[C@@H](O)[C@@H](O)[C@H](O)[C@@H](O)C(=O)[O-].[Na+]", "relative growth": 1.17}, {"molecule": "C[C@@H](NCCCc1cccc(C(F)(F)F)c1)c1cccc2ccccc12.Cl", "relative growth": 0.159}, {"molecule": "C[C@@H]1CN([C@@H](C)CO)C(=O)c2cccc(NC(=O)Nc3cccc4ccccc34)c2O[C@H]1CN(C)S(=O)(=O)c1cccc(F)c1", "relative growth": 0.957}, {"molecule": "CCc1cnc2c(c1OC)c(=O)n(CCN1CCOCC1)c(=O)n2C", "relative growth": 0.967}, {"molecule": "CC(C)Cn1c(=O)n(C)c(=O)c2[nH]cnc21", "relative growth": 0.918}, {"molecule": "COc1ccc([C@@H]([C@H](Cc2ccccc2)OC(C)=O)N2C[C@H]3[C@H]([C@@H](OC(C)=O)c4ccccc4)ON(C)[C@H]3[C@@H]2Cc2ccccc2)cc1", "relative growth": 1.3}, {"molecule": "CNC1(C)C2CCC(C2)C1(C)C.Cl", "note": "(stereo not given)", "relative growth": 1.09}, {"molecule": "C[C@@]12CC[C@@H]3[C@@](COC(=O)c4ccccc4)(O[C@@H]4O[C@H](CO)[C@@H](O)[C@H](O)[C@H]4O)[C@H](O1)O[C@]3(O)C2", "relative growth": 0.952}, {"molecule": "C[C@@H]1CN([C@@H](C)CO)S(=O)(=O)c2ccc(-c3cccc(C#N)c3)cc2O[C@H]1CN(C)C(=O)c1cccnc1", "relative growth": 1.1}, {"molecule": "COc1cc([C@@H]2c3cc4c(cc3[C@@H](O[C@@H]3O[C@@H]5CO[C@@H](c6cccs6)O[C@H]5[C@H](O)[C@H]3O)[C@H]3COC(=O)[C@H]23)OCO4)cc(OC)c1O", "relative growth": 0.561}, {"molecule": "O=C(Nc1ccc2c(c1)[C@@H]1C[C@H](CC(=O)N3CCc4ccccc4C3)O[C@@H](CO)[C@@H]1O2)C1CCOCC1", "relative growth": 1.05}, {"molecule": "O=C(C[C@H]1CC[C@H]2[C@@H](COC[C@H](O)CN2CC2CCOCC2)O1)N1CCOCC1", "relative growth": 0.938}, {"molecule": "COc1ccc(S(=O)(=O)N2C[C@H](O)COC[C@H]3O[C@@H](CC(=O)NCc4ccc(Cl)c(Cl)c4)CC[C@@H]32)cc1", "relative growth": 0.932}, {"molecule": "C[C@H](CO)N1C[C@H](C)[C@@H](CN(C)C(=O)Nc2ccccc2F)Oc2cc(C#CCN(C)C)ccc2S1(=O)=O", "relative growth": 1.06}, {"molecule": "O=C([O-])CCNC(=O)c1ccc(/N=N/c2ccc(O)c(C(=O)[O-])c2)cc1.[Na+].[Na+]", "relative growth": 0.931}, {"molecule": "O=C(C[C@H]1C=C[C@H](NS(=O)(=O)c2ccc(F)cc2)[C@H](CO)O1)N1CCC(Cc2ccccc2)CC1", "relative growth": 0.75}, {"molecule": "O=c1ccc2ccccc2o1", "relative growth": 1.07}, {"molecule": "CC1(C)C=Cc2cc3ccc(=O)oc3cc2O1", "relative growth": 0.964}, {"molecule": "C[C@H](c1cccnc1)N(C(=O)Nc1ccccc1)C1CCCCC1", "relative growth": 1.06}, {"molecule": "C/C(=C\\CO)CC[C@H](C)CCC[C@H](C)CCCC(C)C", "relative growth": 0.988}, {"molecule": "NC(=O)c1cc2ccccc2oc1=O", "relative growth": 1.15}, {"molecule": "Cc1ccc2nc(-c3ccc(/N=C\\c4ccc[nH]4)cc3)sc2c1", "relative growth": 1.13}, {"molecule": "Cc1[nH]c2ncnn2c(=O)c1CCC(=O)O", "relative growth": 1.14}, {"molecule": "CCOC(=O)c1c(C)cc(O)cc1O", "relative growth": 0.897}, {"molecule": "COCC#Cc1cnc2c(c1)C(=O)N([C@@H](C)CO)C[C@H](C)[C@H](CN(C)C(=O)c1cnccn1)O2", "relative growth": 1.03}, {"molecule": "C/C(=N\\N)c1ccc2ccccc2c1", "relative growth": 0.937}, {"molecule": "Cc1ccc(S[C@]2(C(=O)O)CC(=O)N(Cc3cc(C(F)(F)F)cc(C(F)(F)F)c3)[C@@H]2c2ccc(CO)cc2I)cc1", "relative growth": 1.06}, {"molecule": "COc1cccc(-c2cn(CC[C@@H]3CC[C@H](NS(=O)(=O)c4ccccc4Cl)[C@H](CO)O3)nn2)c1", "relative growth": 1.01}, {"molecule": "COc1ccc(S(=O)(=O)N[C@H]2CC[C@H](CCNC(=O)CN3CCOCC3)O[C@@H]2CO)cc1", "relative growth": 1.06}, {"molecule": "Cc1c(C(=O)Nc2ccc3ccccc3c2)oc2ccccc12", "relative growth": 0.96}, {"molecule": "CN(C)Cc1cn(CC[C@@H]2CC[C@@H](NC(=O)Cc3cccnc3)[C@@H](CO)O2)nn1", "relative growth": 1.16}, {"molecule": "C=CCOC(=O)[C@H]1[C@@H]2C(=O)O[C@@H](c3ccccc3)[C@@H](c3ccccc3)N2[C@@H](c2ccc(OCCOC(=O)[C@H]3C[C@H]4C(=O)N5CCC[C@H]5C(=O)N4[C@H]3c3cccc(OCCO)c3)cc2)[C@]12C(=O)Nc1ccccc12", "relative growth": 0.95}, {"molecule": "COc1ccccc1CNC(=O)C[C@@H]1CC[C@H]2[C@@H](COC[C@H](O)CN2C(=O)Nc2ccc(F)cc2)O1", "relative growth": 1.07}, {"molecule": "C[C@H](CO)N1C[C@H](C)[C@H](CN(C)C(=O)Cc2cccnc2)Oc2cc(C#Cc3ccccc3F)ccc2S1(=O)=O", "relative growth": 0.803}, {"molecule": "COc1ccc([Si](C)(C)[C@@H]2[C@@H](CC(=O)N3CCC[C@H]3CO)O[C@]3(C(=O)N(Cc4cccc(N5CCCCC5=O)c4)c4ccccc43)[C@H]2C)cc1", "relative growth": 1.11}, {"molecule": "COc1c(N2C[C@@H]3CCCN[C@@H]3C2)c(F)cc2c(=O)c(C(=O)O)cn(C3CC3)c12.Cl", "relative growth": 0.149}, {"molecule": "O=C(C[C@H]1CC[C@@H]2[C@H](COC[C@@H](O)CN2S(=O)(=O)c2ccc(F)cc2)O1)N[C@H]1CCN(Cc2ccccc2)C1", "relative growth": 0.94}, {"molecule": "COc1cccc(NC(=O)N2C[C@@H](O)COC[C@H]3O[C@@H](CC(=O)NCCCN4CCOCC4)CC[C@@H]32)c1", "relative growth": 1.02}, {"molecule": "COc1ccc(S(=O)(=O)N(C)C[C@@H]2Oc3cc(C#CC4CC4)ccc3S(=O)(=O)N([C@H](C)CO)C[C@H]2C)cc1", "relative growth": 1.11}, {"molecule": "NC(=O)C1CCN(C(=O)c2ccco2)CC1", "relative growth": 1.14}, {"molecule": "COCCOC(=O)N1C(=O)[C@@]2(c3ccccc31)[C@H](C(=O)N1CCCCCCC1)[C@H]1C(=O)O[C@H](c3ccccc3)[C@H](c3ccccc3)N1[C@@H]2c1ccccc1OCCO", "relative growth": 1.08}, {"molecule": "C=CCc1c(C)[nH]c(N)nc1=O", "relative growth": 0.979}, {"molecule": "Nc1nc2c(ncn2COC(CO)CO)c(=O)[nH]1.O", "relative growth": 1.41}, {"molecule": "CO[C@@H]1CN(C)C(=O)c2cc(NS(=O)(=O)c3cn(C)cn3)ccc2OC[C@H](C)N(Cc2cccc(F)c2)C[C@@H]1C", "relative growth": 0.861}, {"molecule": "COc1ccccc1S(=O)(=O)N[C@@H]1CC[C@@H](CCNC(=O)C2CC2)O[C@@H]1CO", "relative growth": 1.08}, {"molecule": "C[C@H]1CN([C@@H](C)CO)S(=O)(=O)c2ccc(Br)cc2O[C@@H]1CN(C)C(=O)C1CCCCC1", "relative growth": 0.831}, {"molecule": "O=C1N[C@H](Cc2ccccc2)COC(=O)[C@@H](Cc2ccc(F)cc2)CCC=CC[C@@H]1CC(=O)N(CCO)Cc1ccccc1", "relative growth": 0.982}, {"molecule": "O=C(NCc1ccco1)c1nc2ncccn2n1", "relative growth": 0.988}, {"molecule": "C[C@@H]1CN([C@H](C)CO)C(=O)c2cc(C#CCc3ccccc3)cnc2O[C@H]1CN(C)CC1CCOCC1", "relative growth": 1.15}, {"molecule": "Cc1ccc(N2C(=O)c3ccccc3[C@](C)(C(=O)NCCN3CCOCC3)[C@@H]2c2ccc(CO)cc2)nc1", "relative growth": 1.04}, {"molecule": "Cc1noc(C)c1NC(=O)N(C)C[C@H]1Oc2cc(C#CCN(C)C)ccc2S(=O)(=O)N([C@@H](C)CO)C[C@H]1C", "relative growth": 1.11}, {"molecule": "COc1cc(CO)c(CC(=O)NN)cc1OC", "relative growth": 0.922}, {"molecule": "C[C@@H]1CN([C@@H](C)CO)S(=O)(=O)c2ccc(C#CCN(C)C)cc2O[C@H]1CN(C)C(=O)CN(C)C", "relative growth": 0.916}, {"molecule": "O=C(C[C@@H]1CC[C@@H]2[C@H](COC[C@@H](O)CN2S(=O)(=O)c2cccc(F)c2)O1)NCCCN1CCOCC1", "relative growth": 0.971}, {"molecule": "O=C1c2ccccc2[C@@]2(Cc3ccccc3N(C3CC3)C2=O)[C@H](c2ccc(CO)cc2)N1Cc1ccccc1", "relative growth": 0.916}, {"molecule": "CC1(C)C(=O)C=C[C@@]2(C)C1CC(=O)[C@]1(C)C2CC[C@@]2(C)[C@H](c3ccoc3)OC(=O)[C@H]3O[C@]321", "note": "(stereo not given in full)", "relative growth": 0.956}, {"molecule": "OCc1ccccc1O", "relative growth": 1.09}, {"molecule": "Cc1ccccc1S(=O)(=O)N(C)C[C@@H]1Oc2ccc(NC(=O)Nc3cccc(C(F)(F)F)c3)cc2CC(=O)N([C@@H](C)CO)C[C@@H]1C", "relative growth": 0.857}, {"molecule": "COc1c(N2CCNC(C)C2)c(F)cc2c(=O)c(C(=O)O)cn(C3CC3)c12", "note": "(stereo not given)", "relative growth": 0.148}, {"molecule": "N[C@@H](C(=O)O)[C@@H](O)[C@H](O)[C@H](O)CO", "relative growth": 0.952}, {"molecule": "Nc1ncnc2c1ncn2C1O[C@H](COP(=O)(O)OP(=O)([O-])OP(=O)([O-])O)[C@@H](O)[C@H]1O.[Na+].[Na+]", "note": "(stereo not given in full)", "relative growth": 0.998}, {"molecule": "NNC(=O)CCCC[C@H]1SC[C@H]2NC(=O)N[C@H]21", "relative growth": 0.978}, {"molecule": "FC(F)(F)COCC(F)(F)F", "relative growth": 0.971}, {"molecule": "CN(C)CCOC(=O)COc1ccc(Cl)cc1.Cl", "relative growth": 1.05}, {"molecule": "NCCN1CCC(C(=O)O)CC1", "relative growth": 1.09}, {"molecule": "C/C=C(\\C(C)=N\\O)c1ccccc1", "relative growth": 1.02}, {"molecule": "C=CC1=C(C(=O)O)N2C(=O)C(NC(=O)/C(=N/OCC(=O)O)c3csc(N)n3)C2SC1", "note": "(stereo not given)", "relative growth": 0.884}, {"molecule": "Br.Cn1c(=O)c2c(ncn2C)n(C)c1=O", "relative growth": 0.863}, {"molecule": "CCOC(=O)C[C@@H](N)c1cccc(O)c1", "relative growth": 1.01}, {"molecule": "O=C(C[C@@H]1CC[C@@H]2[C@H](COC[C@H](O)CN2C(=O)c2ccccc2)O1)N1CCOCC1", "relative growth": 1.07}, {"molecule": "COc1cc2c(cc1OC)CN(C(=O)[C@@H]1[C@H]3C(=O)O[C@H](c4ccccc4)[C@H](c4ccccc4)N3[C@H](c3ccc(O)cc3)[C@@]13C(=O)Nc1ccc(C#CCCO)cc13)CC2", "relative growth": 1.07}, {"molecule": "COC(=O)C[C@H]1CC[C@@H]2[C@H](COC[C@@H](O)CN2S(=O)(=O)c2ccccc2C)O1", "relative growth": 0.894}, {"molecule": "CS(=O)(=O)N1CCc2ccc(N)cc2C1", "relative growth": 1.02}, {"molecule": "CCOC(=O)OC(C)OC(=O)C1N2C(=O)C(NC(=O)[C@H](N)c3ccccc3)C2SC1(C)C.Cl", "note": "(stereo not given in full)", "relative growth": 0.489}, {"molecule": "COc1ccc([Si](C)(C)[C@@H]2[C@@H](CCO)O[C@]3(C(=O)N(Cc4ccc(N5CCCCC5=O)cc4)c4ccccc43)[C@H]2C)cc1", "relative growth": 0.86}]}]}
